Laboratory results from PubChem BioAssay (NCI).
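How tested: cells in 96-well plates exposed to compound for 48 hours at five concentrations. GI50 = concentration required for 50% inhibition of growth. TGI: total growth inhibition.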

Key:
Test in all cases: DTP human tumour cell line panel, 48 h
[1] = system: 786-0 renal
[2] = system: A498 renal
[3] = system: A549 NSCLC
[4] = system: ACHN renal
[5] = system: BT-549 breast
[6] = system: CAKI-1 renal
[7] = system: CCRF-CEM leukemia
[8] = system: COLO 205 colon
[9] = system: DU-145 prostate
[10] = system: EKVX NSCLC
[11] = system: HCC-2998 colon
[12] = system: HCT-116 colon
[13] = system: HCT-15 colon
[14] = system: HL-60(TB) leukemia
[15] = system: HOP-62 NSCLC
[16] = system: HOP-92 NSCLC
[17] = system: HS 578T breast
[18] = system: HT29 colon
[19] = system: IGROV1 ovarian
[20] = system: K-562 leukemia
[21] = system: KM12 colon
[22] = system: LOX IMVI melanoma
[23] = system: M14 melanoma
[24] = system: MALME-3M melanoma
[25] = system: MCF7 breast
[26] = system: MDA-MB-231 breast
[27] = system: MDA-MB-435
[28] = system: MOLT-4 leukemia
[29] = system: NCI-H226 lung
[30] = system: NCI-H23 lung
[31] = system: NCI-H322M lung
[32] = system: NCI-H460 lung
[33] = system: NCI-H522 lung
[34] = system: NCI/ADR-RES ovarian
[35] = system: OVCAR-3 ovarian
[36] = system: OVCAR-4 ovarian
[37] = system: OVCAR-5 ovarian
[38] = system: OVCAR-8 ovarian
[39] = system: PC-3 prostate
[40] = system: RPMI-8226 leukemia
[41] = system: RXF 393 renal
[42] = system: SF-268 CNS
[43] = system: SF-295 CNS
[44] = system: SF-539 CNS
[45] = system: SK-MEL-2 melanoma
[46] = system: SK-MEL-28 melanoma
[47] = system: SK-MEL-5 melanoma
[48] = system: SK-OV-3 ovarian
[49] = system: SN12C renal
[50] = system: SNB-19 CNS
[51] = system: SNB-75 CNS
[52] = system: SR leukemia
[53] = system: SW-620 colon
[54] = system: T-47D breast
[55] = system: TK-10 renal
[56] = system: U251 CNS
[57] = system: UACC-257 melanoma
[58] = system: UACC-62 melanoma
[59] = system: UO-31 renal

N#CC1(Nc2ccc(Cl)cc2)CCN(Cc2ccccc2)CC1
GI50 [1]: 2.74 µM
TGI [1]: > 100 µM
GI50 [2]: 21.9 µM
TGI [2]: > 100 µM
GI50 [3]: 2.82 µM
TGI [3]: > 100 µM
GI50 [4]: 0.491 µM
TGI [4]: > 100 µM
GI50 [5]: 4.17 µM
TGI [5]: > 100 µM
GI50 [6]: 0.612 µM
TGI [6]: > 100 µM
GI50 [7]: 2.11 µM
TGI [7]: > 100 µM
GI50 [8]: 0.869 µM
TGI [8]: 4.98 µM
GI50 [9]: > 100 µM
TGI [9]: > 100 µM
GI50 [10]: 83.3 µM
TGI [10]: > 100 µM
GI50 [11]: 3.4 µM
TGI [11]: 87.3 µM
GI50 [12]: 3.88 µM
TGI [12]: > 100 µM
GI50 [13]: 0.664 µM
TGI [13]: > 100 µM
GI50 [14]: 3.47 µM
TGI [14]: > 100 µM
GI50 [15]: 59 µM
TGI [15]: > 100 µM
GI50 [16]: 35.3 µM
TGI [16]: > 100 µM
GI50 [17]: > 100 µM
TGI [17]: > 100 µM
GI50 [18]: > 100 µM
TGI [18]: > 100 µM
GI50 [19]: 30 µM
TGI [19]: > 100 µM
GI50 [20]: 0.156 µM
TGI [20]: > 100 µM
GI50 [21]: 0.758 µM
TGI [21]: > 100 µM
GI50 [22]: 0.463 µM
TGI [22]: > 100 µM
GI50 [23]: 0.333 µM
TGI [23]: 36.7 µM
GI50 [24]: 87.1 µM
TGI [24]: > 100 µM
GI50 [25]: 4.74 µM
TGI [25]: > 100 µM
GI50 [26]: 10.5 µM
TGI [26]: > 100 µM
GI50 [27]: 1.34 µM
TGI [27]: > 100 µM
GI50 [28]: 3.17 µM
TGI [28]: 60.7 µM
GI50 [29]: 22.7 µM
TGI [29]: > 100 µM
GI50 [30]: 34 µM
TGI [30]: > 100 µM
GI50 [31]: > 100 µM
TGI [31]: > 100 µM
GI50 [32]: 0.793 µM
TGI [32]: > 100 µM
GI50 [33]: 29.4 µM
TGI [33]: > 100 µM
GI50 [34]: 21.6 µM
TGI [34]: > 100 µM
GI50 [35]: 16.1 µM
TGI [35]: > 100 µM
GI50 [36]: 55.8 µM
TGI [36]: > 100 µM
GI50 [37]: 1.63 µM
TGI [37]: > 100 µM
GI50 [38]: 30.4 µM
TGI [38]: > 100 µM
GI50 [39]: 22.2 µM
TGI [39]: > 100 µM
GI50 [40]: 4.3 µM
TGI [40]: > 100 µM
GI50 [41]: > 100 µM
TGI [41]: > 100 µM
GI50 [42]: 40.2 µM
TGI [42]: > 100 µM
GI50 [43]: 0.979 µM
TGI [43]: > 100 µM
GI50 [44]: 8.16 µM
TGI [44]: > 100 µM
GI50 [45]: 15.1 µM
TGI [45]: > 100 µM
GI50 [46]: 60.4 µM
TGI [46]: > 100 µM
GI50 [47]: 0.756 µM
TGI [47]: 13.3 µM
GI50 [48]: > 100 µM
TGI [48]: > 100 µM
GI50 [49]: 28.6 µM
TGI [49]: > 100 µM
GI50 [50]: 62.9 µM
TGI [50]: > 100 µM
GI50 [51]: 57 µM
TGI [51]: > 100 µM
GI50 [52]: 7.31 µM
TGI [52]: > 100 µM
GI50 [53]: 2.14 µM
TGI [53]: > 100 µM
GI50 [54]: 1.8 µM
TGI [54]: > 100 µM
GI50 [55]: 14.1 µM
TGI [55]: > 100 µM
GI50 [56]: 17.3 µM
TGI [56]: > 100 µM
GI50 [57]: 21.7 µM
TGI [57]: > 100 µM
GI50 [58]: 0.187 µM
TGI [58]: > 100 µM
GI50 [59]: 7.81 µM
TGI [59]: > 100 µM
